Assay: Tail-flick Agonist Test
Format: in vivo
Conditions: rats; no ED50 calculable

Row | SMILES | separation of agonist and toxic effects
1 | Nc1ccc2c(c1)N1CCN(CC3CC3)C(C2)C1 (racemic) [Example 1D, 4-cyclopropylmethyl-9-amino-3,4,5,6-tetrahydro-2H-1,5-methano-1,4-benzodiazocine] | none showed sufficient separation of agonist and toxic effects
2 | CCS(=O)(=O)O.CCS(=O)(=O)O.Nc1ccc2c(c1)N1CCN(CC3CC3)C(C2)C1 (stereo not shown) [Example 1E, 4-cyclopropylmethyl-9-amino-3,4,5,6-tetrahydro-2H-1,5-methano-1,4-benzodiazocine diethanesulfonate] | none showed sufficient separation of agonist and toxic effects
3 | CCNc1ccc2c(c1)N1CCN(CC3CC3)C(C2)C1.Cl.Cl (stereo not shown) [Example 3B, 4-cyclopropylmethyl-9-ethylamino-3,4,5,6-tetrahydro-2H-1,5-methano-1,4-benzodiazocine dihydrochloride] | none showed sufficient separation of agonist and toxic effects
4 | CCCCNc1ccc2c(c1)N1CCN(CC3CC3)C(C2)C1 (stereo not shown) [Example 4B, 4-cyclopropylmethyl-9-butylamino-3,4,5,6-tetrahydro-2H-1,5-methano-1,4-benzodiazocine] | none showed sufficient separation of agonist and toxic effects
